From patent US6358936B2, “Compounds for the treatment of cancer” (Ardenia Investments, Ltd., priority 1998, dated 2002)

System: EAC cells
Experiment: Antitumor effect of compound 1 and doxorubicin on EAC in C3H mice (Example 20)
Format: in vivo
Conditions: dose 50 μg/mouse i.v. (doxorubicin equivalent, 2.5 mg/kg), days 2, 4, 6, day 9
Method: A study of the anti-tumour effect of compound 1 as compared with doxorubicin was carried out in EAC, passed in C3H mice. 20-22 g males of C3H mice were used. Control and experimental groups included 7 animals, which were inoculated 5×10^6 EAC cells i.p. in volume 0.2 ml at day 0. On second, fourth and sixth days following inoculation the doses of 20, 50 and 100 μg/mouse of compound 1, equivalent ones of doxorubicin, in 200 μl of normal mice serum (NMS) were injected i.v. Three groups of animals were administrated water solutions of doxorubicin in doses^—of 1, 2.5 and 5 μg/kg of body weight (20, 50 and 100 μg/mouse by weight of 20 g accordingly). One group of mice was untreated control. Results of experiment were accounted on ninth day. Mice were killed by cervical dislocation. Ascitic fluids were removed, collected, their volumes were measured, and abdominal cavities were washed by saline solution 6-7 times. Thus obtained fluids were pooled. The number of viable tumor cells was counted by hemocytometer, using trypan blue exclusion test. The mean and the standard mean error was calculated for each group of mice. Comparison of tumor cell number in control and experimental groups was carried out using Student t-test. Influence of tested preparation on EAC growth inhibition was evaluated by: [formula]

With `COc1cccc2c1C(=O)c1c(O)c3c(c(O)c1C2=O)C[C@@](O)(C(=O)CO)C[C@@H]3O[C@H]1C[C@H](N)[C@H](O)[C@H](C)O1` [DXR, doxorubicin, reference compound] the “EAC growth inhibition, % to control” value was 45.4%.
